Measurements from publication PMC2995924 (International journal of high throughput screening, 2010).

Molecular target: T1, Ca2+-bound S100B (Rattus norvegicus, UniProt P04631)
T1 sequence (P04631 1-92): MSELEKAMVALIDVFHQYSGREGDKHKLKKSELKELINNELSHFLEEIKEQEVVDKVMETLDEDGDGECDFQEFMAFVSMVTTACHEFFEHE
Assay: NMR 1H-15N HSQC chemical shift perturbation secondary screen
Assay type: binding
Conditions: 10-fold excess compound versus S100B (100 μM; 10 mM Ca2+)

CN(C)CCCN1c2ccccc2Sc2ccc(Cl)cc21 [SC0067, chlorpromazine]
NMR (confirmed to bind S100B via NMR HSQC experiments): Yes
